# Source: PubChem (National Center for Advancing Translational Sciences (NCATS))
# In the library only some 2.2% were active in any assay of this set; here they are far more common.
# Nrf2 block: Nrf2 pathway inhibition | Potency, µM (doses to about 46 µM), for inactives: at the highest dose activity change, negative = inhibition, usual class: inhibitors | 2.1% of 360,000 active | A549 ARE-Fluc reporter, luciferase luminescence, 18-24 h; further: potency means the concentration at half of the fitted maximal effect; on the % scale 0 is the no-effect control and ±100 the full control effect; nearly all actives have a fitted effect of over 60% in size
#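 Nrf2 activity is the BugLite luminescence, read 15 min after reagent at room temperature, following CellTiter-Fluor cytotoxicity readout (30 min, 37C). Compound titrations were applied for 18-24 h to 5000 A549 ARE_Fluc cells/well in 5% FBS OPTI-MEM.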
# A549 viability: counter-screen for Nrf2 inhibitors: cytotoxicity in A549 cells; A549 ARE-Fluc cells, CellTiter-Fluor viability, 18-24 h; Potency, µM (highest dose often 46 µM), for inactives: at the highest dose activity change, negative = cytotoxicity, hits mostly inhibitors; 0.16% of 390,000 active; further: potency means the concentration at half of the fitted maximal effect; on the % scale 0 is the no-effect control and ±100 the full control effect
#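 A549 ARE_Fluc cells in 5% FBS OPTI-MEM were exposed to compounds in concentration-response for 18-24 h at 37 deg C. Viability was read by CellTiter-Fluor fluorescence (Ex 405/Em 525) after 30 min, before the luciferase read.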
# miR-21 FLuc: raises the signal of a miR-21 reporter; 340,000 tested, under 10 active; HeLa miR-21 FLuc reporter, luciferase, 48 h; Potency, µM (series often up to 38.3 µM), for inactives: at the highest dose reporter change, positive = more light; active = well fitted rising curve with a large enough effect; inconclusive = small, poorly fitted or top-dose-only effect; inactive = no such curve, though single readings can be large or run the other way;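 further: % of control where 0% means no effect; miR-21 action dims this reporter so a rising signal means less miR-21 action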
#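 HeLa cells endogenously expressing miR-21, stably carrying CMV-driven firefly luciferase with a downstream miR-21 binding site, 2000 cells/well. Titrations up to approximately 40 uM, 48 hours; luciferase luminescence read.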
# PI4K2A block: PI4K2A (human) kinase inhibition; purified PI4K2A, ADP-Glo luminescence, 1 h; stronger effect = lower value; activity change, negative = inhibition, % at 76.9 µM; 0.13% of 420,000 active; AID 1346378; in the data active means activity change below about -50%; inconclusive means mostly about -30% to -49%;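 further: -100% = wells without enzyme as full effect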
#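 Compounds are screened against recombinant PI4K2A using PI as substrate and ATP, the latter dispensed at 300 microM. Reactions run one hour at ambient temperature before ADP-Glo detection; full inhibition defined by wells lacking enzyme.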
# Nrf2 activator: Nrf2 pathway activation. AREc32 ARE-luciferase reporter (MCF7-derived line), luminescence, 24 h. 0.31% of 410,000 active. Potency, µM (top dose mostly 46.1 µM), without a hit: at the highest dose activation, hits mostly activators; further: potency means the concentration at half of the fitted maximal effect; % of control where 0% means no effect; nearly all actives have a fitted effect of over 65% in size
#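 Steps: seed AREc32_Fluc cells (1000/well, 5% FBS OPTI-MEM); incubate overnight at 37 deg C; add 23 nL compound; incubate 24 hr; add Steady-Glo; hold 30 min RT; read luminescence.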
# GALK inh: inhibitors of human galactokinase | P51570 | Purified GALK, Kinase-Glo residual ATP luminescence | Potency, µM (titrated, usually from 57.5 µM), without a hit: at the top dose activity change, negative = inhibition, most hits filed as inhibitors | 0.007% of 270,000 active | AID 1868; further: potency means the concentration at half of the fitted maximal effect; on the % scale 0 is the no-effect control and ±100 the full control effect
#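 5 nM enzyme, 35 uM ATP, 100 uM galactose, 20 mM HEPES pH8.0, 5 mM MgCl2; 1 h RT; residual ATP by Kinase-Glo Plus luminescence, qHTS format.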
# * hit, by the source's call; ? = inconclusive; . = not tested or not shown; [ ] = another dose, or the depositor's remark. Unless noted, the call rests on the fitted dose curve; in most records, active means well fitted curve in the direction sought with a large enough effect; inconclusive means small, poorly fitted or top-dose-only effect, or another doubt; inactive means no such curve, though single readings can be large; an effect the other way counts as inactive or inconclusive.
nr	Structure	miR-21 FLuc	Nrf2 block	Nrf2 activator
1	O=S(=O)(c1cccc(C(F)(F)F)c1)N1CCC(Oc2ccc(-n3cnnn3)cc2)CC1	19%	18µM*	0%
2	O=S(=O)(c1ccccc1)N1CCC(Oc2ccc(-n3cnnn3)cc2)CC1	12%	?	3%
3	COC(=O)c1scc(C)c1NC(=O)Nc1ccccc1	-8%	.	5%
4	COC(=O)c1scc(C)c1NC(=O)C(Cl)c1ccccc1 (stereo unspecified)	5%	4%	13µM*
5	COC(=O)c1scc(C)c1NC(=O)c1ccccc1F	-13%	?	13µM*
6	COc1cc2c(cc1NC(=O)CSc1nnc(COc3ccccc3)n1Cc1ccco1)oc1ccccc12	.	.	.
7	Cc1cccc(-c2nc(CSCC(=O)N3CCN(c4ccccn4)CC3)c(C)o2)c1	18%	21µM*	0%
8	Cc1cccc(-c2nc(CSCC(=O)N3CCN(c4cccc(C)c4C)CC3)c(C)o2)c1	20%	.	2%
9	COc1ccccc1C(=O)n1ccc2ccc(-c3ccc4ccn(Cc5ccc(C#N)cc5)c4c3)cc21	.	.	.
10	Cc1cccc(C)c1NC(=O)N1CCN(c2nc3ccccc3s2)CC1	3%	4.6µM*	1%

nr	A549 viability	GALK inh	PI4K2A block
1	?	.	-1
2	-6%	-1%	0
3	-7%	0%	-4
4	2%	8%	-2
5	2%	2%	5
6	.	.	0
7	-9%	-1%	2
8	-27%	.	-9
9	.	.	-6
10	-18%	0%	1

# (continued)
nr	Structure	miR-21 FLuc	Nrf2 block	Nrf2 activator
11	Cc1cccc(Cl)c1NC(=O)N1CCN(c2ccnc3cc(Cl)ccc23)CC1	-5%	9.2µM*	0%
12	O=C(Nc1ccc(C(F)(F)F)cc1)N1CCN(c2ccnc3cc(Cl)ccc23)CC1	?	18µM*	10%
13	CCCCNC(=O)N1CCN(c2ccnc3cc(Cl)ccc23)CC1	8%	10µM*	0%
14	CCOc1ccc(NC(=O)N2CCN(c3nc4ccccc4s3)CC2)cc1	-5%	?	3%
15	O=C(Nc1cc(F)ccc1F)N1CCN(c2ccnc3cc(Cl)ccc23)CC1	21%	16µM*	3%
16	CC(=O)N1CCN(c2ccnc3cc(Cl)ccc23)CC1	9%	?	0%
17	C=CCN(C(=O)[C@@H](C)[C@@H](O)c1ccc2ccccc2c1)c1ccccc1	.	.	.
18	O=S(=O)(c1ccc2c(c1)OCCO2)N1CCN(S(=O)(=O)c2ccc3nc(Cl)c(Cl)nc3c2)CC1	.	-16%	.
19	COc1ccc(CNc2nc3ccccc3n2Cc2ccc(Cl)cc2)cc1OC	14%	23µM*	4%
20	CCCCOc1ccc(S(=O)(=O)n2c(C)nc3ccccc32)cc1	1%	7.3µM*	0%

nr	A549 viability	GALK inh	PI4K2A block
11	-11%	.	2
12	?	.	-3
13	-4%	2%	2
14	-9%	-1%	3
15	-2%	1%	-1
16	2%	1%	-4
17	.	.	-2
18	-5%	.	.
19	-16%	0%	3
20	-18%	-5%	3

# Next section:
nr	Structure	miR-21 FLuc	Nrf2 block	Nrf2 activator
21	CC(C)(C)c1ccc(Cn2c(Cc3ccccc3)nc3ccccc32)cc1	25%	23µM*	4%
22	Cc1nc2ccccc2n1Cc1ccc(Cl)cc1	9%	18µM*	4%
23	CCn1c(NCc2ccc(OC)c(OC)c2)nc2ccccc21	13%	?	3%
24	CCCC/C=C1/[C@H](CC)N(C)C2=N[C@@H](c3ccccc3)CC(=O)N21	.	.	.
25	COc1ccc(CNc2nc(Cl)nc3nc[nH]c23)cc1	.	-12%	.
26	O=C(Nc1cc(C(F)(F)F)ccc1Cl)C(O)Cc1ccccc1 (stereo unspecified)	.	7%	.
27	c1ccc(OCCn2c(COc3ccccc3)nc3ccccc32)cc1	-17%	4%[9.27 µM]	4%
28	Cc1nc2ccccc2n1CCOc1ccccc1	5%	15µM*	0%
29	O=C(NCCc1nc2ccccc2n1CCOc1ccccc1)C1CCCCC1	.	26µM*	.
30	Cc1ccc(NC(=O)C2CCCN2S(=O)(=O)c2cccnc2)cc1C (stereo unspecified)	.	.	.

nr	A549 viability	GALK inh	PI4K2A block
21	-11%	.	1
22	9%	.	4
23	-12%	.	1
24	.	.	2
25	2%	.	.
26	-7%	.	.
27	1%	.	2
28	-3%	-7%	3
29	?	.	.
30	.	.	-3

# Next section.
nr	Structure	miR-21 FLuc	Nrf2 block	Nrf2 activator
31	CCN(Cc1ccccc1)C(=O)C1C2C=CC3(CN(Cc4ccccc4)C(=O)C13)O2 (stereo unspecified)	.	.	.
32	CC(=O)c1sc(NC(=O)CCS(=O)(=O)c2ccc(C)cc2)nc1C	.	-25%	22µM*
33	N#Cc1ccsc1NC(=O)CCS(=O)(=O)c1ccccc1	0%	-15%	14µM*
34	CC(C)(C)c1nnc(NC(=O)CCS(=O)(=O)c2ccccc2)s1	3%	-10%	16µM*
35	N#Cc1ccsc1NC(=O)COC(=O)CCS(=O)(=O)c1ccccc1	.	3%	0%
36	CC(=O)c1sc(NC(=O)CS(=O)(=O)c2ccc(F)cc2)nc1C	.	12%	0%
37	Cn1nc(C(F)(F)F)c2cc(C(=O)Nc3ccc(F)c(Cl)c3)sc21	-1%	13µM*	-1%
38	Cn1nc(C(F)(F)F)c2cc(C(=O)Nc3ccc(C(F)(F)F)cc3)sc21	-4%	23µM*	0%
39	O=C(OCC#CCSc1nnc(-c2cccc3ccccc23)o1)c1sc(Cl)c(Cl)c1Cl	.	26%	.
40	c1ccc(C2CCC3(CC2)CCC3NCc2cccs2)cc1 (stereo unspecified)	.	.	.

nr	A549 viability	GALK inh	PI4K2A block
31	.	.	2
32	?	.	-2
33	-1%	-1%	3
34	0%	-2%	0
35	5%	.	2
36	5%	.	-1
37	-8%	.	7
38	?	.	-1
39	0%	.	.
40	.	.	1

# 4 entries from above, as tab-separated lines:
cpd	canonical_smiles	miR-21 FLuc	Nrf2 block	Nrf2 activator	A549 viability	GALK inh	PI4K2A block
32	CC(=O)c1sc(NC(=O)CCS(=O)(=O)c2ccc(C)cc2)nc1C	.	-25%	22µM*	?	.	-2
33	N#Cc1ccsc1NC(=O)CCS(=O)(=O)c1ccccc1	0%	-15%	14µM*	-1%	-1%	3
34	CC(C)(C)c1nnc(NC(=O)CCS(=O)(=O)c2ccccc2)s1	3%	-10%	16µM*	0%	-2%	0
35	N#Cc1ccsc1NC(=O)COC(=O)CCS(=O)(=O)c1ccccc1	.	3%	0%	5%	.	2

# Next part.
nr	Structure	miR-21 FLuc	Nrf2 block	Nrf2 activator
41	COc1ccc(CN(C2CC2)S(=O)(=O)c2ccccc2Br)cc1	.	16µM*	0%
42	Cc1ccc(C(C)(C)C)cc1S(=O)(=O)N1CC(=O)Nc2ccccc21	7%	26µM*	2%
43	Cc1cc(C(C)(C)C)cc(C)c1S(=O)(=O)N1CC(=O)Nc2ccccc21	-3%	-17%	-1%
44	COc1ccc(NC(=O)c2ccc(-c3ccc([N+](=O)[O-])cc3)o2)cc1	-7%	18%	0%
45	COc1ccc(CCNC(=S)NC(=O)c2ccc(Br)cc2)cc1OC	-9%	15µM*	3%
46	COc1ccc(CCNC(=O)CCNC(=O)c2ccc(Br)cc2)cc1OC	-8%	-2%	0%
47	COc1ccc(CCNC(=O)c2ccc3ccccc3n2)cc1OC	7%	23µM*	4%
48	COc1ccc(CCNC(=O)c2ccc(-c3ccc([N+](=O)[O-])cc3)o2)cc1OC	8%	26µM*	1%
49	COc1ccc(CNC(=O)c2ccc3ccccc3n2)cc1OC	8%	13µM*	3%

nr	A549 viability	GALK inh	PI4K2A block
41	-1%	.	1
42	?	1%	0
43	1%	-2%	-2
44	-3%	-2%	7
45	1%	5%	0
46	2%	-8%	4
47	-13%	0%	0
48	-2%	-2%	2
49	-16%	0%	-1
